Experimental data from ChEMBL document CHEMBL3259658, “Discovery of BI 224436, a Noncatalytic Site Integrase Inhibitor (NCINI) of HIV-1” (ACS Med Chem Lett, 2014).

Target: Human immunodeficiency virus type 1 integrase (Human immunodeficiency virus 1, UniProt Q7ZJM1)
Assay: Inhibition of HIV1 integrase by LTR cleavage assay

SMILES	IC50
Cc1nc2ccc(Br)cc2c(-c2ccccc2)c1CC(=O)O	5.1 µM
Cc1nc2ccc(Cl)cc2c(-c2ccccc2)c1CC(=O)O	9.1 µM
Cc1nc2ccccc2c(-c2ccc(Cl)cc2)c1CC(=O)O	3.1 µM
